Literature values in patent US7371751B2, “Thiazole derivatives” (Hoffmann-La Roche Inc., priority 2003, dated 2008).

The chains behind the UniProt entries cited, without tags or fusion partners.
UniProt P47746, whole entry: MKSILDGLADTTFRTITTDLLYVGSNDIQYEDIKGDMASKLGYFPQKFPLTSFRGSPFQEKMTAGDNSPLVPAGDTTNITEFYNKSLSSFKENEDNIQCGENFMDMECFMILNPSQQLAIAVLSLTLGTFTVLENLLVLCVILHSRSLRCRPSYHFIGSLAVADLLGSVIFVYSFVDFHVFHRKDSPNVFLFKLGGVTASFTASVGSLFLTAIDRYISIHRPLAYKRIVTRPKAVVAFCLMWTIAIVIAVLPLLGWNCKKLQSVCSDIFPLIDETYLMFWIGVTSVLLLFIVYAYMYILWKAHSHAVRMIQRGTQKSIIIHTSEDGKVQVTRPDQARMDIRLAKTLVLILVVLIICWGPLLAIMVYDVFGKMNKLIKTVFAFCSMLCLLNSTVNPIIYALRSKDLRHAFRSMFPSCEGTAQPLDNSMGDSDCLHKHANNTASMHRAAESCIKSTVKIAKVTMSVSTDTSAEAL

Biological target: CB1 receptor (Mus musculus, UniProt P47746)
Settings: wild-type versus CB1 receptor knockout mice; cited from earlier work

Cc1c(C(=O)NN2CCCCC2)nn(-c2ccc(Cl)cc2Cl)c1-c1ccc(Cl)cc1 [SR 141716]
food intake: reduces food intake in wild-type but not knockout mice
